Experimental data taken from ChEMBL document CHEMBL4196129, “Structural Optimization and Characterization of Potent Analgesic Macrocyclic Analogues of Neurotensin (8-13)” (J Med Chem, 2018).

Protein sequences, listed by entry. Tags and fused reporters are not part of them.
UniProt P30989, whole entry: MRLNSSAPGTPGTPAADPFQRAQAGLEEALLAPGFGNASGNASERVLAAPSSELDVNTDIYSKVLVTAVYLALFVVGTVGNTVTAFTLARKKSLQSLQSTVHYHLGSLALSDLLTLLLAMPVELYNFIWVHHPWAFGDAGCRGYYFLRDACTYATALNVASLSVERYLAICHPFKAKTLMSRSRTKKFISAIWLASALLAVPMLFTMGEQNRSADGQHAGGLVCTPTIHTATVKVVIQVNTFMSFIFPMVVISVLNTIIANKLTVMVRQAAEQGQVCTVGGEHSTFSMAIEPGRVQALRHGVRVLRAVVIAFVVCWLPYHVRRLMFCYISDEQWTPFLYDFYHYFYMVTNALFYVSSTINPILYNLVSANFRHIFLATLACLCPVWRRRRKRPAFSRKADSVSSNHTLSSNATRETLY

Columns and labels:
[1] = molecular target: T1, Neurotensin receptor type 1 (Homo sapiens, UniProt P30989); test: Agonist activity at GFP10/beta-arrestin1-Rluc2 fused human NTS1 expressed in CHO-K1 cell membranes assessed as beta-arrestin1 recruitment after 20 mins by BRET assay; format: functional, cell-based
[2] = molecular target: T1, Neurotensin receptor type 1; test: Agonist activity at GFP10/beta-arrestin2-Rluc2 fused human NTS1 expressed in CHO-K1 cell membranes assessed as beta-arrestin2 recruitment after 20 mins by BRET assay; format: functional, cell-based
[3] = Half life in rat plasma by UPLC-MS analysis; format: ADME, cell-free
Outline: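 Quenched with acetonitrile/ethanol (1:1) plus 0.5% nicotinamide, centrifuged and filtered. Parent peptide measured by UPLC-MS; half-life from a one-phase decay fit.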

**Q.** Which EC50 [1] does the source give for `CC[C@H](C)[C@H](NC(=O)[C@@H]1Cc2ccc(O)c(c2)CC=CCCNCCCC[C@H](N)C(=O)N[C@@H](CCCCN)C(=O)N2CCC[C@H]2C(=O)N1)C(=O)N[C@@H](CC(C)C)C(=O)O` here?
**A.** 0.024 µM

**Q.** With `CC[C@H](C)[C@H](NC(=O)[C@@H]1Cc2ccc(O)c(c2)CC=CCNCCCC[C@@H](N)C(=O)N[C@@H](CCCCN)C(=O)N2CCC[C@H]2C(=O)N1)C(=O)N[C@@H](CC(C)C)C(=O)O` as the compound, how does the EC50 [2] read?
**A.** 0.201 µM

**Q.** Which EC50 [1] does the source give for `CC[C@H](C)[C@H](NC(=O)[C@@H]1Cc2ccc(O)c(c2)CC=CCNCC[C@H](N)C(=O)N[C@@H](CCCCN)C(=O)N2CCC[C@H]2C(=O)N1)C(=O)N[C@@H](CC(C)C)C(=O)O` here?
**A.** 0.035 µM

**Q.** And the EC50 [2]?
**A.** 0.019 µM

**Q.** With `CC[C@H](C)[C@H](NC(=O)[C@@H]1Cc2ccc(O)c(c2)CC=CCN(S(=O)(=O)c2ccccc2[N+](=O)[O-])CCCC[C@H](N)C(=O)N[C@@H](CCCCN)C(=O)N2CCC[C@H]2C(=O)N1)C(=O)N[C@@H](CC(C)C)C(=O)O` as the compound, how does the EC50 [2] read?
**A.** 0.092 µM

**Q.** For `CC[C@H](C)[C@H](NC(=O)[C@@H]1Cc2ccc(O)c(c2)CC=CCCCNCCCC[C@H](N)C(=O)N[C@@H](CCCCN)C(=O)N2CCC[C@H]2C(=O)N1)C(=O)N[C@@H](CC(C)C)C(=O)O`, which EC50 [1] is on record?
**A.** 0.05 µM

**Q.** What about the EC50 [2] of the same compound?
**A.** 0.024 µM

**Q.** Which half-life [3] does the source give for `CC[C@H](C)[C@H](NC(=O)[C@@H]1Cc2ccc(O)c(c2)CC=CCNCCCC[C@H](N)C(=O)N[C@@H](CCCCN)C(=O)N2CCC[C@H]2C(=O)N1)C(=O)N[C@@H](CC(C)C)C(=O)O` here?
**A.** 19 min

**Q.** What about the EC50 [2] of the same compound?
**A.** 0.021 µM
